{"sequences": {"note": "Sequences of proteins named here, by UniProt entry; tags and fusion partners are left off.", "UniProt A8MUK1, whole entry": "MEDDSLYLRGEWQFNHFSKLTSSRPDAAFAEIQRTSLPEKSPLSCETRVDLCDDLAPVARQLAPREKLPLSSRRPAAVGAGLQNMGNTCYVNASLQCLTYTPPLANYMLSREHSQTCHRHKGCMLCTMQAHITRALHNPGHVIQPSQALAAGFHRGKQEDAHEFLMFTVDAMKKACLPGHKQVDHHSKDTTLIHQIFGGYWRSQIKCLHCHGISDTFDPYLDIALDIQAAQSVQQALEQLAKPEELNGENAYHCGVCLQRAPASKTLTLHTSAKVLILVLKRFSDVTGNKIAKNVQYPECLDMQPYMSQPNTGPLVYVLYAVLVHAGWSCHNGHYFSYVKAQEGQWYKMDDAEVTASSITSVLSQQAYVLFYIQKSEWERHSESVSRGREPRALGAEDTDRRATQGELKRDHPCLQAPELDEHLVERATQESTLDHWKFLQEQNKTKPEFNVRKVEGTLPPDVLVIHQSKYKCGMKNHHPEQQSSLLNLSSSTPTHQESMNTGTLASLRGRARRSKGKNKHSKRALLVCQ"}, "source": "PubChem BioAssay AID1645855", "about": "(Buhrlage Lab, Dana-Farber Cancer Institute and Novartis …, 2021)", "note": "The entries are a selection whose mix differs from that of the whole data set. Some of these compounds have results that are not shown, active ones among them. Active and inactive are the calls of the source. Rule as the data show it: active = inhibition above about 30%; inactive = the rest.", "data": [{"molecular_target": "Ubiquitin carboxyl-terminal hydrolase 17-like protein 5 (Homo sapiens) (UniProt A8MUK1)", "assay": "blocks human USP17 ubiquitin-rhodamine cleavage (AID 1645855)", "conditions": "purified USP17, Ub-rhodamine cleavage fluorescence, 3 h; at 50 µM; stronger effect = higher value", "values": [{"smiles": "COc1ccc(C(=O)NCC2(N3CCOCC3)CCCCC2)cc1", "inhibition": "inactive: -7.41%"}, {"smiles": "O=C(NCC1(N2CCCCC2)CCCCC1)c1ccc2c(c1)OCCO2", "inhibition": "inactive: 4.2%"}, {"smiles": "Cc1c(C(=O)NCC2(N(C)C)CCCCC2)oc2ccc(F)cc12", "inhibition": "inactive: 1.69%"}, {"smiles": "COc1cccc(C(=O)NCC2(N3CCCCC3)CCCCC2)c1", "inhibition": "inactive: -35.4%"}, {"smiles": "Cc1c(C(=O)NCC2(N(C)C)CCCCC2)oc2ccccc12", "inhibition": "inactive: -15.8%"}, {"smiles": "O=C(NCC1(N2CCCCC2)CCCCC1)c1ccc2ccccc2c1", "inhibition": "inactive: -9.05%"}, {"smiles": "O=C(NCC1(N2CCOCC2)CCCCC1)c1ccccc1F", "inhibition": "inactive: -0.897%"}]}]}
